Data on two molecules can be found in PMC12186844 (ACS Chemical Neuroscience, 2025).

By UniProt entry, the sequences of proteins in these tests, tags left out.
UniProt P14416, whole entry: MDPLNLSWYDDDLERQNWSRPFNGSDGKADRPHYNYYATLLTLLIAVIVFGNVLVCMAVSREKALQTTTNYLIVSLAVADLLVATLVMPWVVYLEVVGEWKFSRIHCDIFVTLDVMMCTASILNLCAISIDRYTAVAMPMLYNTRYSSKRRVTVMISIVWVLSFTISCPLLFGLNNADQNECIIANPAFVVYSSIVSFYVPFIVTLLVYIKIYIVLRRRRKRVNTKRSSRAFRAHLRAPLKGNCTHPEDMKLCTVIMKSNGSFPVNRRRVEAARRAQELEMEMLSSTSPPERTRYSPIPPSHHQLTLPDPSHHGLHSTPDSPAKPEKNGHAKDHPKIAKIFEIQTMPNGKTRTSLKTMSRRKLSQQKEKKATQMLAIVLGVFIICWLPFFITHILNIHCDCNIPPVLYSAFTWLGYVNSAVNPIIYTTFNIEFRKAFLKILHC

For the experiment, the target named is D2LR (Homo sapiens, UniProt P14416). As to the kind of experiment: whole cell [3H]raclopride binding assay.
Setting [1] is: orthosteric ligand, radioligand binding assay.

The structures appear in SMILES notation. Like-named read-outs stand apart in the source and are kept apart here.

Regarding `CCN1CCC[C@H]1CNC(=O)c1c(O)c(Cl)cc(Cl)c1OC` (racemic) [[3H]raclopride, reference compound], the KA was 1.4 nM and the pKA turned out to be 8.86 ± 0.16.
With `CCCN1CCC[C@@H](c2cccc(O)c2)C1` [S-(3)-PPP, reference compound], under setting [1], the KA is reported as 1740 nM and the pKA is 5.76 ± 0.18.
